Our source for the PCY and IC50 values is ChEMBL document CHEMBL1123597, “Synthesis and structure-activity relationships of pyrazolo[4,3-d]pyrimidin-7-ones as adenosine receptor antagonists” (J Med Chem, 1987).

The chains behind the UniProt entries cited, without tags or fusion partners.
UniProt P25099, whole entry: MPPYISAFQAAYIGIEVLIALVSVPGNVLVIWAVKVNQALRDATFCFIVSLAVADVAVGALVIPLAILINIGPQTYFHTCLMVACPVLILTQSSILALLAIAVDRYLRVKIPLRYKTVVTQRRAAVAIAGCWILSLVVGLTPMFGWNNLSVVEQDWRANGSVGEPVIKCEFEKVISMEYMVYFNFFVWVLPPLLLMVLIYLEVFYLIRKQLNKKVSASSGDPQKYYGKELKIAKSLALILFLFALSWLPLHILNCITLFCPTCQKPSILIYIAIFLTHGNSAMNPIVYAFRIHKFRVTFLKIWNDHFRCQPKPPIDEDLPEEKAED

The structures appear in SMILES notation.
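For PCY in this document: radioligand displacement of N6-[3H]cyclohexyladenosine binding in rat brain membranes, PCY computed as the log of 100000 divided by IC50.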

The first experiment has as its target Adenosine receptor A1 (Rattus norvegicus) (UniProt P25099). The note with it: Brain; Membrane.
`COc1cc(OC)cc(-c2nc3c(=O)n(C)c(=O)n(C)c3[nH]2)c1`: the PCY was determined as 2.3. On the same count and under the same terms, under `Cn1c(=O)c2nc(-c3ccc(Cl)cc3)[nH]c2n(C)c1=O` stands 5.1. `Cc1ccc(-c2nc3c(=O)n(C)c(=O)n(C)c3[nH]2)cc1` had a PCY of 5.1.

As for `Cn1c(=O)c2nc(-c3cccc(N)c3)[nH]c2n(C)c1=O`, the PCY was determined as 4. Same read-out and setting: under `Cn1c(=O)c2nc(-c3cccc([N+](=O)[O-])c3)[nH]c2n(C)c1=O` stands 3.3; under `COc1ccc(-c2nc3c(=O)n(C)c(=O)n(C)c3[nH]2)c(OC)c1`, 2.7; under `Cn1c(=O)c2nc(-c3ccc([N+](=O)[O-])cc3)[nH]c2n(C)c1=O`, 4.1.

The target in another experiment is Adenosine receptor A1 (Rattus norvegicus, UniProt P25099). Kind of experiment: Binding affinity against adenosine A1 receptor in rat brain membrane preparations using N6-[3H]cyclohexyladenosine as a radioligand. Format: cell membranes.
Settings: not given
One may read the IC50 as the concentration at which inhibition is half-maximal. A lower IC50 goes with inhibition by little substance. Regarding `COc1cccc(-c2nc3c(=O)n(C)c(=O)n(C)c3[nH]2)c1`, the IC50 was found to be 2 nM.
